What follows are molecules tested against IKZF1 (Homo sapiens, UniProt Q13422+Q96SW2) (assay: Western blot assay of substrate protein degradation in hPBMCs). Details: 24 hours treatment, compounds at 50 nM and 500 nM (concentration behind the class not stated).

Amino acid sequences for entries named in this document (tags omitted).
UniProt Q13422, whole entry: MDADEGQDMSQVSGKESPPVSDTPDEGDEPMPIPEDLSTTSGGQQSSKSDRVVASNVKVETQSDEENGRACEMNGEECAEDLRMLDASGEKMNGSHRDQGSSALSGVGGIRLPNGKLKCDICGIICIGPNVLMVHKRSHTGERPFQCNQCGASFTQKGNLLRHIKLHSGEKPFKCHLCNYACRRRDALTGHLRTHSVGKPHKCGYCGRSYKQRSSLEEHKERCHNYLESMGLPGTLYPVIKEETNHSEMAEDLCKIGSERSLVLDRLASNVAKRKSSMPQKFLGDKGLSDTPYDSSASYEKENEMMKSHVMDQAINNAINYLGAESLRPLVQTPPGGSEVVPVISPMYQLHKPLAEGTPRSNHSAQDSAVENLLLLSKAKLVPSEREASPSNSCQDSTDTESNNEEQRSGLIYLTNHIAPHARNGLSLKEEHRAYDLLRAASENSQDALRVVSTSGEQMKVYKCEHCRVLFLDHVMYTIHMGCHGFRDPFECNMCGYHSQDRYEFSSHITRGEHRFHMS
UniProt Q96SW2, whole entry: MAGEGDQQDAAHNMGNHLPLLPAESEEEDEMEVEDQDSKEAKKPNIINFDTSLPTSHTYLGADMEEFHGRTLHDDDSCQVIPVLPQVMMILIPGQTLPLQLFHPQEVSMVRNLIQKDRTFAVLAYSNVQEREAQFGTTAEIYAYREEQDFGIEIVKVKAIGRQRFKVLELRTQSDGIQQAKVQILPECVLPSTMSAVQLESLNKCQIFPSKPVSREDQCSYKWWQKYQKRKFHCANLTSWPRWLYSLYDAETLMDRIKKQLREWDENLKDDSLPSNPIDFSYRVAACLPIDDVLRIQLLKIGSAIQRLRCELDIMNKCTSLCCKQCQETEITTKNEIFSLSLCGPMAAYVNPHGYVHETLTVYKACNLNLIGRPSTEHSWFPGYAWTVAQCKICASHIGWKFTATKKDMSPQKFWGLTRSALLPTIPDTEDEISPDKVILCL
UniProt P15170, whole entry: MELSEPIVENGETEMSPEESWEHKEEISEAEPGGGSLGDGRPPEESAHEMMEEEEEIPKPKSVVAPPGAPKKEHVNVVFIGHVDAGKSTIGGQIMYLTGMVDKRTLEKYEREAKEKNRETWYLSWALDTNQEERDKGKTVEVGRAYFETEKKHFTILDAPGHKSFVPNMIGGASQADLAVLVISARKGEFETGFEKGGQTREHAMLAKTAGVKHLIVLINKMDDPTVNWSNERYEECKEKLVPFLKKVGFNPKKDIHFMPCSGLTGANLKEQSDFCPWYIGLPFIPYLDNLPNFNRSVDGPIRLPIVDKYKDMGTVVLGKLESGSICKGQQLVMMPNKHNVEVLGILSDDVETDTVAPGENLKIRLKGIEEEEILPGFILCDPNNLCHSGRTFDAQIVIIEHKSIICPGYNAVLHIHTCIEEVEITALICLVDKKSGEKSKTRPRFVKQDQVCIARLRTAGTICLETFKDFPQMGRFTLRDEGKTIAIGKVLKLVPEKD
UniProt P48729, whole entry: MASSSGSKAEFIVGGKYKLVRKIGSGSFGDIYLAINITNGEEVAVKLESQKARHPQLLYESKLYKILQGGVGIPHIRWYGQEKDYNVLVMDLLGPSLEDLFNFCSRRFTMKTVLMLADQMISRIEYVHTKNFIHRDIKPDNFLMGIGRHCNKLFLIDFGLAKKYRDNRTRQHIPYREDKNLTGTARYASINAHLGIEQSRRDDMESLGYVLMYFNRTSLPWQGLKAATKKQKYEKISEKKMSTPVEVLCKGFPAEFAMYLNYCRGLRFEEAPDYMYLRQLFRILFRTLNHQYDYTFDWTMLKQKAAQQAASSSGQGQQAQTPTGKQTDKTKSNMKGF
UniProt P30291, whole entry: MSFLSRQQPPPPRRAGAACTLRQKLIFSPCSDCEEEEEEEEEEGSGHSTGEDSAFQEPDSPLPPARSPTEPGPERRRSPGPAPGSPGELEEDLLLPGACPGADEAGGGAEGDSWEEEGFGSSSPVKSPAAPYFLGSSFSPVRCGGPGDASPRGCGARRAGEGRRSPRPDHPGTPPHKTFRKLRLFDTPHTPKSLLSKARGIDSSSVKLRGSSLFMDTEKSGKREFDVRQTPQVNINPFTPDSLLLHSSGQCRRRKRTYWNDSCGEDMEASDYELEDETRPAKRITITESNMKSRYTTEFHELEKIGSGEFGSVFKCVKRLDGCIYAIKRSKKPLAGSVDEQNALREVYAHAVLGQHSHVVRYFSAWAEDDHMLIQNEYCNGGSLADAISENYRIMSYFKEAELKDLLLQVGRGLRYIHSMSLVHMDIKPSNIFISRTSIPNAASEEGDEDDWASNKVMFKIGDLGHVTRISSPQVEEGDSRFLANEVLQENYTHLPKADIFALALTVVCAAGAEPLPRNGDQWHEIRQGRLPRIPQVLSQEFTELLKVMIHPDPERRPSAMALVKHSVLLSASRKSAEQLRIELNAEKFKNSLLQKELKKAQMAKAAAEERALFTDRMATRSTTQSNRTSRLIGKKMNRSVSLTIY
UniProt Q9UKT9, whole entry: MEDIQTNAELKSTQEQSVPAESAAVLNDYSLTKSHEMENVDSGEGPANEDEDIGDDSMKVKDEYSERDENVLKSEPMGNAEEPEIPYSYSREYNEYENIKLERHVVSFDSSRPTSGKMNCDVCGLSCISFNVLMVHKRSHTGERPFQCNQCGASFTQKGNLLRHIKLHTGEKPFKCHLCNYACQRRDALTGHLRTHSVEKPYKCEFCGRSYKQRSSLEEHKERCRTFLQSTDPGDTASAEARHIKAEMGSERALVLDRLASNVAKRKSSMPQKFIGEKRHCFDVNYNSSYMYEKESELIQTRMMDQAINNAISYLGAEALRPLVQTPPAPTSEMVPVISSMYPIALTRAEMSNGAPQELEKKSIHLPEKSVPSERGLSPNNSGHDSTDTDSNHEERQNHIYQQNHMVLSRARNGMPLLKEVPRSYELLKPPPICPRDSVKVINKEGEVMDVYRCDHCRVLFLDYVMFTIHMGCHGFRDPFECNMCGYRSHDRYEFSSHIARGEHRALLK
UniProt Q9UKS7, whole entry: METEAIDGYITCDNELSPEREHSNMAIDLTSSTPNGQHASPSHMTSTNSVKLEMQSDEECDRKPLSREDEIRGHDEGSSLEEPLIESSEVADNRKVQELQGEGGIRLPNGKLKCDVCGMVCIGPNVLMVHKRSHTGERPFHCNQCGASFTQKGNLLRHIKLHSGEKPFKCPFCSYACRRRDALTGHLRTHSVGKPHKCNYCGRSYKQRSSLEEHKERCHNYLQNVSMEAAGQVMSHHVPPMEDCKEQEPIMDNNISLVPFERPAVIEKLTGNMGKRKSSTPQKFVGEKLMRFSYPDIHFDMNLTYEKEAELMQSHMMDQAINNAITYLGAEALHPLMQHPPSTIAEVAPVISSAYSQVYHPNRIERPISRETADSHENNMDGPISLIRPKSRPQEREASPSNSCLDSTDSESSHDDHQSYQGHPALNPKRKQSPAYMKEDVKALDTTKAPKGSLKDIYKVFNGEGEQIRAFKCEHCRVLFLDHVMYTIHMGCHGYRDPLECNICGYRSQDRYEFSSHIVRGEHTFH
UniProt Q16531, whole entry partner: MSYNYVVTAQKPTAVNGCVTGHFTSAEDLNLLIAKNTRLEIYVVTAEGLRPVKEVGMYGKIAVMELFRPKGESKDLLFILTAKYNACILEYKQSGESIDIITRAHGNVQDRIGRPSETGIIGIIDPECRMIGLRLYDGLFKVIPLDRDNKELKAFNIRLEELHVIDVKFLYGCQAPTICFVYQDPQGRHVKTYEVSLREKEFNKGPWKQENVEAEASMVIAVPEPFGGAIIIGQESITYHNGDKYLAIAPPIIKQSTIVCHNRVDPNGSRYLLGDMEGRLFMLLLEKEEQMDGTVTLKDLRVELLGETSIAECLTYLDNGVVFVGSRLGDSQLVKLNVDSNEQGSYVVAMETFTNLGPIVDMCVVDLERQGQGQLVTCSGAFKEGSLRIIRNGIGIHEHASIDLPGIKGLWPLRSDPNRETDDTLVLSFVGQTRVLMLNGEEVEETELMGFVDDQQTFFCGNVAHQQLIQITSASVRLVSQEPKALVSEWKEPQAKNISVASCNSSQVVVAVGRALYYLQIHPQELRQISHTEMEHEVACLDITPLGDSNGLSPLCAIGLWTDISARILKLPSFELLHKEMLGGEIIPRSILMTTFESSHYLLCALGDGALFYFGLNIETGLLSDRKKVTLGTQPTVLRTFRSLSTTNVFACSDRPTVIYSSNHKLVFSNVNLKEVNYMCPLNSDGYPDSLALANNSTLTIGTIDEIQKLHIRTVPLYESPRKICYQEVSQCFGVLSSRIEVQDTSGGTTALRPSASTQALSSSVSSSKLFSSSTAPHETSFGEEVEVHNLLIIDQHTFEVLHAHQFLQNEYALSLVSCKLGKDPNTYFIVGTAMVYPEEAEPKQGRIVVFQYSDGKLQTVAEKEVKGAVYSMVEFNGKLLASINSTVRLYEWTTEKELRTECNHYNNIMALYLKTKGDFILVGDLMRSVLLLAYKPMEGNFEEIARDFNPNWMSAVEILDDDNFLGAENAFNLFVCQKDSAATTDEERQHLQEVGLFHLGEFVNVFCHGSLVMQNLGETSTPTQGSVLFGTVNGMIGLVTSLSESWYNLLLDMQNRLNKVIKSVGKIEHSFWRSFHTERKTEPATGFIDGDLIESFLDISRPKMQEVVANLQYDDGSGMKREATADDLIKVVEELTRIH

Q: With `O=C1CCC(N2Cc3c(C(=O)N4CCC(N5CCN(c6cccc(Cl)c6Cl)CC5)C(F)(F)C4)cccc3C2=O)C(=O)N1` (stereo not drawn) as the molecule, how does the “substrate protein remaining % (IKZF 1)” value read?
A: A (0% ≤ substrate protein remaining % ≤ 80%)

Q: `CC1(C)CCC(CN2CCN(C3CCN(C(=O)c4cccc5c4CN(C4CCC(=O)NC4=O)C5=O)CC3(F)F)CC2)=C(c2ccc(Cl)cc2)C1` (stereo not drawn) was tested. Which “substrate protein remaining % (IKZF 1)” value did it give?
A: B (80%< substrate protein remaining %≤ 100%)

These molecules were tested against GSPT1 (Homo sapiens, UniProt P15170+Q96SW2) in the same assay as above. Details: 24 hours treatment, compounds at 50 nM and 500 nM (concentration behind the class not stated).

Q: Which “substrate protein remaining % (GSPT1)” value does the source give for `O=C1CCC(N2Cc3c(C(=O)N4CCC(N5CCN(c6cccc(Cl)c6Cl)CC5)C(F)(F)C4)cccc3C2=O)C(=O)N1` (stereo not drawn) here?
A: A (0% ≤ substrate protein remaining % ≤ 80%)

Q: `CC1(C)CCC(CN2CCN(C3CCN(C(=O)c4cccc5c4CN(C4CCC(=O)NC4=O)C5=O)CC3(F)F)CC2)=C(c2ccc(Cl)cc2)C1` (stereo not drawn) was tested. Which “substrate protein remaining % (GSPT1)” value did it give?
A: A (0% ≤ substrate protein remaining % ≤ 80%)

These molecules were tested against CK1α (Homo sapiens, UniProt P48729+Q96SW2) in the same assay as above. Details: 24 hours treatment, compounds at 50 nM and 500 nM (concentration behind the class not stated).

Q: How did the “substrate protein remaining % (CK1a)” value turn out when `O=C1CCC(N2Cc3c(C(=O)N4CCC(N5CCN(c6cccc(Cl)c6Cl)CC5)C(F)(F)C4)cccc3C2=O)C(=O)N1` (stereo not drawn) was run?
A: A (0% ≤ substrate protein remaining % ≤ 80%)

Q: How did the “substrate protein remaining % (CK1a)” value turn out when `CC1(C)CCC(CN2CCN(C3CCN(C(=O)c4cccc5c4CN(C4CCC(=O)NC4=O)C5=O)CC3(F)F)CC2)=C(c2ccc(Cl)cc2)C1` (stereo not drawn) was run?
A: A (0% ≤ substrate protein remaining % ≤ 80%)

Each molecule was assayed against WEE1 (Homo sapiens, UniProt P30291+Q96SW2) in the same assay as above. Details: 24 hours treatment, compounds at 50 nM and 500 nM (concentration behind the class not stated).

Q: `O=C1CCC(N2Cc3c(C(=O)N4CCC(N5CCN(c6cccc(Cl)c6Cl)CC5)C(F)(F)C4)cccc3C2=O)C(=O)N1` (stereo not drawn) was tested. Which “substrate protein remaining % (WEE1)” value did it give?
A: B (80%< substrate protein remaining %≤ 100%)

Q: For `CC1(C)CCC(CN2CCN(C3CCN(C(=O)c4cccc5c4CN(C4CCC(=O)NC4=O)C5=O)CC3(F)F)CC2)=C(c2ccc(Cl)cc2)C1` (stereo not drawn), which “substrate protein remaining % (WEE1)” value is on record?
A: B (80%< substrate protein remaining %≤ 100%)

These molecules were tested against IKZF3 (Homo sapiens, UniProt Q96SW2+Q9UKT9) in the same assay as above. Details: 24 hours treatment, compounds at 50 nM and 500 nM (concentration behind the class not stated).

Q: How did the “substrate protein remaining % (IKZF3)” value turn out when `O=C1CCC(N2Cc3c(C(=O)N4CCC(N5CCN(c6cccc(Cl)c6Cl)CC5)C(F)(F)C4)cccc3C2=O)C(=O)N1` (stereo not drawn) was run?
A: A (0% ≤ substrate protein remaining % ≤ 80%)

Q: For `CC1(C)CCC(CN2CCN(C3CCN(C(=O)c4cccc5c4CN(C4CCC(=O)NC4=O)C5=O)CC3(F)F)CC2)=C(c2ccc(Cl)cc2)C1` (stereo not drawn), which “substrate protein remaining % (IKZF3)” value is on record?
A: B (80%< substrate protein remaining %≤ 100%)

What follows are molecules tested against IKZF2 (Homo sapiens, UniProt Q96SW2+Q9UKS7) in the same assay as above. Details: 24 hours treatment, compounds at 50 nM and 500 nM (concentration behind the class not stated).

Q: `O=C1CCC(N2Cc3c(C(=O)N4CCC(N5CCN(c6cccc(Cl)c6Cl)CC5)C(F)(F)C4)cccc3C2=O)C(=O)N1` (stereo not drawn) was tested. Which “substrate protein remaining % (IKZF2)” value did it give?
A: A (0% ≤ substrate protein remaining % ≤ 80%)

Q: For `CC1(C)CCC(CN2CCN(C3CCN(C(=O)c4cccc5c4CN(C4CCC(=O)NC4=O)C5=O)CC3(F)F)CC2)=C(c2ccc(Cl)cc2)C1` (stereo not drawn), which “substrate protein remaining % (IKZF2)” value is on record?
A: B (80%< substrate protein remaining %≤ 100%)

Each molecule was assayed against CRBN (Homo sapiens, UniProt Q96SW2) (assay: CRBN binding affinity by HTRF (CEREBLON BINDING kit)). Details: CRBN binding, HTRF, compound at 0.5 µM.

Q: For `O=C1CCC(N2Cc3c(C(=O)N4CCC(N5CCN(c6cccc(Cl)c6Cl)CC5)C(F)(F)C4)cccc3C2=O)C(=O)N1` (stereo not drawn), which “Inhibition Rate at 0.5 µM (%)” value is on record?
A: a2 (20% < a2 ≤ 30%)

Q: How did the “Inhibition Rate at 0.5 µM (%)” value turn out when `CC1(C)CCC(CN2CCN(C3CCN(C(=O)c4cccc5c4CN(C4CCC(=O)NC4=O)C5=O)CC3(F)F)CC2)=C(c2ccc(Cl)cc2)C1` (stereo not drawn) was run?
A: a3 (30% < a3 ≤ 40%)

Same assay, conditions: CRBN binding, HTRF, compound at 2 µM

Q: Which “Inhibition Rate at 2 µM (%)” value does the source give for `O=C1CCC(N2Cc3c(C(=O)N4CCC(N5CCN(c6cccc(Cl)c6Cl)CC5)C(F)(F)C4)cccc3C2=O)C(=O)N1` (stereo not drawn) here?
A: a5 (53% < a5 ≤ 60%)

Q: With `CC1(C)CCC(CN2CCN(C3CCN(C(=O)c4cccc5c4CN(C4CCC(=O)NC4=O)C5=O)CC3(F)F)CC2)=C(c2ccc(Cl)cc2)C1` (stereo not drawn) as the molecule, how does the “Inhibition Rate at 2 µM (%)” value read?
A: a6 (60% < a6 ≤ 70%)

The molecules below were run on Human multiple myeloma cell (MM.1S) (assay: Tumor cell proliferation inhibition (cell viability assay)). Details: MM.1S cells; 10 nM; 96 hours.

Q: For `O=C1CCC(N2Cc3c(C(=O)N4CCC(N5CCN(c6cccc(Cl)c6Cl)CC5)C(F)(F)C4)cccc3C2=O)C(=O)N1` (stereo not drawn), which “Inhibition Rate at 10 nM (%)” value is on record?
A: 1b3 (10% ≤ 1b3 < 20%)

Same assay, conditions: MM.1S cells; 500 nM; 96 hours

Q: How did the “Inhibition Rate at 500 nM (%)” value turn out when `O=C1CCC(N2Cc3c(C(=O)N4CCC(N5CCN(c6cccc(Cl)c6Cl)CC5)C(F)(F)C4)cccc3C2=O)C(=O)N1` (stereo not drawn) was run?
A: 1b9 (70% ≤ 1b9 < 80%)

What follows are molecules tested on Human mantle cell lymphoma cell line (JEKO-1) in the same assay as above. Details: JEKO-1 cells; 10 nM; 96 hours.

Q: For `O=C1CCC(N2Cc3c(C(=O)N4CCC(N5CCN(c6cccc(Cl)c6Cl)CC5)C(F)(F)C4)cccc3C2=O)C(=O)N1` (stereo not drawn), which “Inhibition Rate at 10 nM (%)” value is on record?
A: 1g5 (30% ≤ 1g5 < 40%)

Same assay, conditions: JEKO-1 cells; 500 nM; 96 hours

Q: Which “Inhibition Rate at 500 nM (%)” value does the source give for `O=C1CCC(N2Cc3c(C(=O)N4CCC(N5CCN(c6cccc(Cl)c6Cl)CC5)C(F)(F)C4)cccc3C2=O)C(=O)N1` (stereo not drawn) here?
A: 1g6 (40% ≤ 1g6 < 50%)

These molecules were tested on Human diffuse large B-cell lymphoma cell (TMD8) in the same assay as above. Details: TMD8 cells; 10 nM; 96 hours.

Q: For `O=C1CCC(N2Cc3c(C(=O)N4CCC(N5CCN(c6cccc(Cl)c6Cl)CC5)C(F)(F)C4)cccc3C2=O)C(=O)N1` (stereo not drawn), which “Inhibition Rate at 10 nM (%)” value is on record?
A: 1f4 (20% ≤ 1f4 < 30%)

Q: For `CC1(C)CCC(CN2CCN(C3CCN(C(=O)c4cccc5c4CN(C4CCC(=O)NC4=O)C5=O)CC3(F)F)CC2)=C(c2ccc(Cl)cc2)C1` (stereo not drawn), which “Inhibition Rate at 10 nM (%)” value is on record?
A: 1f3 (10% ≤ 1f3 < 20%)

Same assay, conditions: TMD8 cells; 500 nM; 96 hours

Q: How did the “Inhibition Rate at 500 nM (%)” value turn out when `O=C1CCC(N2Cc3c(C(=O)N4CCC(N5CCN(c6cccc(Cl)c6Cl)CC5)C(F)(F)C4)cccc3C2=O)C(=O)N1` (stereo not drawn) was run?
A: 1f8 (60% ≤ 1f8 < 70%)

Q: With `CC1(C)CCC(CN2CCN(C3CCN(C(=O)c4cccc5c4CN(C4CCC(=O)NC4=O)C5=O)CC3(F)F)CC2)=C(c2ccc(Cl)cc2)C1` (stereo not drawn) as the molecule, how does the “Inhibition Rate at 500 nM (%)” value read?
A: 1f7 (50% ≤ 1f7 < 60%)

Reference: patent publication EP4834897A1, “COMPOUNDS WITH TWO AZAHETEROCYCLES SUBSTITUTED ISOINDOLINONE SKELETON AND USES THEREOF” (dated 2026)
